Earlier results as cited in PMC12135518, “Population pharmacokinetics and dosing optimization of teicoplanin in renal transplant patients” (Antimicrobial Agents and Chemotherapy, 2025).

Conditions: triexponential elimination; cited from earlier work

For teicoplanin, the elimination half-life is listed as 83 to 163 h.
